## Measured affinities in a library of Ab-14 light chain variants

Data: MIT Lincoln Laboratory AlphaSeq set, Li et al. 2023, doi:10.1038/s41467-023-39022-2, as distributed in FLAb.

Target: peptide PDVDLGDISGINAS, taken from heptad repeat 2 (HR2) of SARS-CoV-2 spike.

Parent scFv Ab-14: VH joined to VL by the linker GGGGSGGGGSGGGGS. Changes lie in the light chain CDRs alone.
VH: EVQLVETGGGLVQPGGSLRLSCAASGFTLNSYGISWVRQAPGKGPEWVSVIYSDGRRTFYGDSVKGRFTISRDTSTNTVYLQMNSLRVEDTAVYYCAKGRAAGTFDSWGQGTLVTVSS
VL: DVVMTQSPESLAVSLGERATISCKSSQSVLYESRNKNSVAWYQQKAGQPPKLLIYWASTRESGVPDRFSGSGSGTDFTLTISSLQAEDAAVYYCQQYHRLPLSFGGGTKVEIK

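This is the validation round: designs drawn from the data on random variants, tested in the same kind of assay. Their group label is 14L_En_HC (En: ensemble of fine-tuned language models; HC: hill climbing; a sequence that several methods proposed may carry one label only). AlphaSeq pools MATa yeast showing the antibodies with MATalpha yeast showing the peptide. Mating (16 h, 30 °C) was followed by selection of diploids and sequencing of their barcodes. Scores were corrected for input abundance and mapped to Kd with protein pairs of known affinity run in the same pool. Mating was done six times.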

Variants are written as CDR1, CDR2 and CDR3 of the light chain (limits as in the source). Parent: KSSQSVLYESRNKNSVA, WASTRES, QQYHRLPLS. Affinities are written as log10 Kd with Kd in nM; a lower number is a better binder. Replicates are averaged; those with no signal do not enter the mean. An entry "nd" has no value in the source: the pair was not observed among the diploids in that replicate. This suggests poor binding but is not conclusive.

The variant HMSQVTMYGYWVKNSVA / QTSTREE / QQYDRLPLS gave 0.76, 2.20, 2.14, 0.17, 0.99, 0.91 (mean 1.20; controls 2 of 18).
The variant KISNMSTIESITHNSVA / QTSTREK / QQYDRLPLS gave 3.22, 2.08, 1.25, 1.17, 1.80, 1.91 (mean 1.90; controls 0 of 18).
The variant HISMSMNWLSRNKNSIA / EESTRED / QQYHRLPLS gave -0.61, 0.01, -0.42, -0.22, -0.22, -0.25 (mean -0.29; controls 0 of 18).
The variant KISQMFYYESINKNSVA / QKSTREE / QDYHRLPLS gave 0.89, 0.42, 0.47, 0.38, 0.41, 0.55 (mean 0.52; controls 0 of 18).
The variant KLLQVTENMQLNRNSVA / HMSTRED / QQYHRLPLS gave 1.90, 1.53, 0.97, 1.14, nd, 1.15 (mean 1.34; controls 0 of 18).
The variant LISGVWDYGSRNYNSVA / QQSTRES / QQYDRLPLS gave nd, nd, nd, nd, nd, nd (controls 0 of 18).
The variant ALSQSMDMTSRNVNSVA / DLTTRYN / QQYHRLPLS gave 0.09, 0.41, 1.93, 0.07, 0.32, 0.64 (mean 0.58; controls 0 of 18).
The variant KISQMSRYEQQNHSSIA / EANTREQ / QSYHRLPLS gave nd, nd, nd, nd, nd, nd (controls 0 of 18).
The variant KLREVIHVETKQKNNVA / DNSTRES / QDYHRLPLS gave 1.57, 1.04, 1.53, 1.40, 1.90, 1.98 (mean 1.57; controls 0 of 18).
The variant HISMMVGTKGYAKNSVA / NEETRED / QQYHRLPLS gave 0.04, -0.42, -0.34, -0.63, -0.34, -0.24 (mean -0.32; controls 0 of 18).
The variant KLSEFYRMETRNKNSVA / DNSTRES / QDYDRLPLS gave nd, nd, nd, 2.12, 2.48, 2.46 (mean 2.36; controls 0 of 18).
The variant KLLQVTENMSLNRNSVA / HMSTRED / QQYHRLPLS gave 0.44, 0.50, 0.37, 0.84, 1.04, 1.02 (mean 0.70; controls 2 of 18).
The variant KIYAASMLESTDKNSIA / DLTNRGN / QQYHRLPLS gave 1.36, 1.19, 0.36, 0.43, 0.72, 0.55 (mean 0.77; controls 0 of 18).
The variant KISQMVNFEGKNKNSVA / QMSTRES / QQYDRLPLS gave 1.07, 0.58, 1.12, 1.08, 0.83, 1.39 (mean 1.01; controls 0 of 18).
The variant TLMEVGGYELNSHNSIA / DLRTREN / QQYHRLPLS gave 0.79, 0.67, 0.61, 0.65, 0.56, 0.89 (mean 0.69; controls 3 of 18).
The variant KLRMMTLTEGYFKNSVA / QASTREN / QSYHRLPLS gave 1.07, 1.00, 1.13, 0.90, 1.14, 1.15 (mean 1.06; controls 3 of 18).
The variant KLYQSMGYLSRNANSIA / DMSRREN / QQYHRLPLS gave 0.11, 0.02, 0.01, -0.55, -0.17, -0.07 (mean -0.11; controls 0 of 18).
The variant KLSQLVNFFGHAINSVA / EMETREN / QQYDRLPLS gave 1.63, 0.91, 0.93, 0.79, 1.45, 1.57 (mean 1.21; controls 0 of 18).
The variant ILSDSVLGLSRNKNSVA / DNSTRES / QQYDRLPLS gave nd, 2.60, nd, nd, 3.24, nd (mean 2.92; controls 2 of 18).
The variant KLYQNVGTMSMNKQSIA / DMERRED / QQYHRLPLS gave 0.46, 0.40, 0.24, -0.08, 0.23, 0.42 (mean 0.28; controls 1 of 18).
The variant KISQSIMFSSGMKNAIA / QMEMREE / QQYHRLPLS gave 0.72, 0.71, 0.38, 0.71, 0.21, 0.52 (mean 0.54; controls 0 of 18).
The variant HISQSVGMTSFNKNSVA / ENSTREN / QQYDRLPLS gave 2.27, 2.07, nd, nd, 2.82, 2.74 (mean 2.47; controls 2 of 18).
The variant TLSQVQGMEMHNRDNVA / DLSTRGN / QQYDRLPLS gave 0.90, 2.20, 1.18, nd, nd, 0.94 (mean 1.31; controls 0 of 18).
The variant MISQLFMYGSRNYNSVA / QASTRES / QQYDHLPLI gave 0.90, 1.34, 0.32, 1.64, 1.66, 2.35 (mean 1.37; controls 0 of 18).
The variant MFSQLVYTGSRTRNAVA / QASTREN / QQYHHLPLA gave 1.47, 1.03, 1.49, 1.54, 1.29, 0.96 (mean 1.30; controls 1 of 18).
The variant KSGQGVLYESRNKNSVA / GASTRES / QQYHRLPLS gave 0.19, 0.03, 0.14, -0.13, 0.17, 0.30 (mean 0.12; controls 0 of 18).
The variant ILYESVGTLSRQKNSVA / DNSTRES / QQYDRLPLS gave 3.05, 2.85, nd, nd, 2.77, 2.86 (mean 2.88; controls 2 of 18).
The variant KIAQMVNFESTHINAVA / QMSTREE / QQYFRLPLS gave 0.48, 0.49, 0.27, 0.25, 0.35, 0.59 (mean 0.40; controls 1 of 18).
The variant HISQMWMLESFNKNNVA / EESTRED / QSYFRLPLS gave nd, nd, 1.72, 2.24, 3.05, 2.85 (mean 2.46; controls 0 of 18).
The variant HLLDTVMQGSYYRNSVA / QESTRAD / QQYHRLPLS gave 0.87, 0.72, 0.93, 0.64, 0.85, 0.94 (mean 0.83; controls 0 of 18).
The variant KLSIMYQHTSRQKNNIA / ERSTREE / QQYHHLPLS gave 0.65, 0.94, 0.85, 0.88, 1.21, 1.43 (mean 0.99; controls 2 of 18).
The variant IISGSMLMESKHKNSVA / NAETREY / QHYHRLPLS gave 0.80, 0.80, 0.89, 0.53, 0.68, 0.98 (mean 0.78; controls 1 of 18).
The variant TISQAFLMENQFKNSVA / QASTRES / QCYDRLPLS gave nd, nd, 1.79, nd, 3.35, nd (mean 2.57; controls 2 of 18).
The variant NFSQMVLTGSTLRNSVA / HASTRCN / QQYHRLPLI gave 1.04, 0.94, 0.96, 0.80, 1.29, 1.65 (mean 1.11; controls 0 of 18).
The variant KLSISHNVESINKSNVA / EMVTRES / QQYDRLPLS gave nd, nd, nd, nd, nd, 3.21 (controls 1 of 18).
The variant MISQLFMYGSRAYNSVA / QASTRES / QQYDRLPLI gave 3.52, 1.98, 0.89, 1.21, 2.08, 2.70 (mean 2.06; controls 1 of 18).
The variant ALGDVTRMESNKKNSIA / DMSNREE / QQYHRLPLS gave -0.09, -0.06, -0.22, -0.24, -0.37, -0.05 (mean -0.17; controls 1 of 18).
The variant MISDLTSYGLRNVNSVA / DLSTRGN / QQYDRLPLS gave 0.38, -0.02, 0.20, -0.04, 0.10, 0.17 (mean 0.13; controls 1 of 18).
The variant KISGMYQKESKNRNSVA / EMVNRES / QQYDRLPLS gave 0.90, 0.45, 0.58, 1.00, 0.66, 0.76 (mean 0.72; controls 0 of 18).
The variant HVSESIFAQSKMRNSVA / ENETRES / QQYDRLPLS gave 3.73, 1.77, 2.39, 2.75, 2.67, 3.09 (mean 2.73; controls 3 of 18).
The variant TISGLILMPSRNKNSVA / NTSTRYS / QQYHRLPLS gave 1.55, 1.25, 1.36, 1.54, 1.41, 1.29 (mean 1.40; controls 1 of 18).
The variant KITQMVTGESHNKNSIA / QMTTREG / QQYHRLPLS gave 2.08, 1.66, 1.98, 1.86, 1.80, 1.00 (mean 1.73; controls 1 of 18).
The variant MISQSFLIGSRAKNSVA / QTSTREQ / QQYDRLPLS gave 0.15, 0.29, -0.15, -0.14, 0.12, 0.13 (mean 0.07; controls 0 of 18).
The variant ILSQSVLMGSHLKNSVA / QASTRFA / QQYHRLPLM gave 0.46, 0.60, 0.56, 0.37, 0.08, 1.05 (mean 0.52; controls 1 of 18).
The variant MISDLTMYGSRNQNSVA / DLSTRGS / QQYHRLPLS gave 0.06, 0.06, -0.08, 0.30, -0.04, 0.25 (mean 0.09; controls 2 of 18).
The variant MIAESVGYQSRNKNSVA / DNSTRGD / QCYDRLPLS gave 1.78, 3.82, 2.41, 2.53, 3.92, 2.80 (mean 2.88; controls 2 of 18).

Excerpt, the first 5 entries:

CDR-L1,CDR-L2,CDR-L3,"log10 Kd, replicates","log10 Kd (nM), mean",empty controls
HMSQVTMYGYWVKNSVA,QTSTREE,QQYDRLPLS,"0.76, 2.20, 2.14, 0.17, 0.99, 0.91",1.20,2 of 18
KISNMSTIESITHNSVA,QTSTREK,QQYDRLPLS,"3.22, 2.08, 1.25, 1.17, 1.80, 1.91",1.90,0 of 18
HISMSMNWLSRNKNSIA,EESTRED,QQYHRLPLS,"-0.61, 0.01, -0.42, -0.22, -0.22, -0.25",-0.29,0 of 18
KISQMFYYESINKNSVA,QKSTREE,QDYHRLPLS,"0.89, 0.42, 0.47, 0.38, 0.41, 0.55",0.52,0 of 18
KLLQVTENMQLNRNSVA,HMSTRED,QQYHRLPLS,"1.90, 1.53, 0.97, 1.14, nd, 1.15",1.34,0 of 18

The authors averaged sequences with at least three values out of six and counted those with two or fewer as poor binders. Values of this round are not directly comparable with the first-round values of the same sequences. Three control strains display no target. For all light chain designs, 4% of the pairings with them gave a signal, with a median of 2.64 and one signal in twenty below 1.59, so weak values seen in few replicates may be background. The control count says in how many pairings with the empty strains this scFv gave a signal. Of ten entries with the parent sequence, four were seen in most replicates (averages 0.34 to 2.37), three in one and three in none, so single entries are noisy.